Measurements as given in ChEMBL document CHEMBL1135773, “Purine and pyrimidine (P2) receptors as drug targets” (J Med Chem, 2002).

Key:
P2X purinoceptor 4 = biological target: T1, P2X purinoceptor 4 (Homo sapiens, UniProt Q99571); experiment: Antagonist activity against recombinant human P2X purinoceptor 4 (P2X4); assay type: functional
T1 sequence (Q99571 whole entry): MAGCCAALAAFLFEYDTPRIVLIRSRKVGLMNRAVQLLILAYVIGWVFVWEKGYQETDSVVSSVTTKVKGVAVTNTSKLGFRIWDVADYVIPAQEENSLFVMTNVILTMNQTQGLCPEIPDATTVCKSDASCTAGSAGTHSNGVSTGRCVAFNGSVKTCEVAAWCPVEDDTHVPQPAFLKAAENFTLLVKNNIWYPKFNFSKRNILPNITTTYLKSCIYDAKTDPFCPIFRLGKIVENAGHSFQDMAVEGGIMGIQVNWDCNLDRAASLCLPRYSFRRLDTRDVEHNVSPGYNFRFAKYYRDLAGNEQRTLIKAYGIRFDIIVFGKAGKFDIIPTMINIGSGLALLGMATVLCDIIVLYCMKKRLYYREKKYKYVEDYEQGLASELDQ

P2X purinoceptor 3 = biological target: T2, P2X purinoceptor 3 (Homo sapiens, UniProt P56373); experiment: Antagonist activity against recombinant human P2X purinoceptor 3 (P2X3 ); assay type: functional
T2 sequence (P56373 whole entry): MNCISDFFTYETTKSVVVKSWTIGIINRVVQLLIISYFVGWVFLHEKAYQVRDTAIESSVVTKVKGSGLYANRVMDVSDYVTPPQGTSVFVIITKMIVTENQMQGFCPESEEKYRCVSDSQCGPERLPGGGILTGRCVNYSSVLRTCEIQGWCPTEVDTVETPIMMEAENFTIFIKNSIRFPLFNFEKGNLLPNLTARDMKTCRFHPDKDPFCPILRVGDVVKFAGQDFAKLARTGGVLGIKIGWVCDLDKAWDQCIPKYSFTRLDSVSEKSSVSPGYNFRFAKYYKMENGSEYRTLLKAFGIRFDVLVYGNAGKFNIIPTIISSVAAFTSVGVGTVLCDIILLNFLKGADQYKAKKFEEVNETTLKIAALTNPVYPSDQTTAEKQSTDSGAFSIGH

## Cc1nc(/N=N/c2ccc(S(=O)(=O)O)cc2S(=O)(=O)O)c(COP(=O)(O)O)c(C=O)c1O
P2X purinoceptor 4
  pEC50: 5.00
P2X purinoceptor 3
  pEC50: 5.77

pEC50: −log10 of the molar value.
